Here are results for one compound from paper PMC5449093, “Selective inhibitors of trypanosomal uridylyl transferase RET1 establish druggability of RNA post-transcriptional modifications” (RNA Biology, 2016).

Amino acid sequences for entries named in this document (tags omitted).
UniProt O13833, whole entry: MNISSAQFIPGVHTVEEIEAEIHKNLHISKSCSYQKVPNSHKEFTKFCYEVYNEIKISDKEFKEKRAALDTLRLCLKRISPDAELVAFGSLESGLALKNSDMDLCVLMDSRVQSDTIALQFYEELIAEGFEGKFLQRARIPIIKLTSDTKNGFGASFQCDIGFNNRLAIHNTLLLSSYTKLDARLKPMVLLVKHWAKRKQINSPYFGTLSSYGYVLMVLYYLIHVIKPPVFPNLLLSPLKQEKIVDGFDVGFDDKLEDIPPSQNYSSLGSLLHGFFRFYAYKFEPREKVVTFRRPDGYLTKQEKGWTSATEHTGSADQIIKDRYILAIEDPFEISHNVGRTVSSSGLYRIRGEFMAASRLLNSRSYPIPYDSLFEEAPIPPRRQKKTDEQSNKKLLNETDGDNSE

Molecules are shown by their SMILES.

The assay has as its target CID1 poly (U) polymerase (Schizosaccharomyces pombe, UniProt O13833). The following applies: read-out: CID1 Inhibition IC50; UTP 18 µM, RNA 3 nM, 37 °C.

Consider `CC1(COc2ccc(CC3SC(=O)NC3=O)cc2)CCCCC1` (stereo not shown), for which the IC50 is 1000 µM.
